For one substance, solubility class results are on record in patent publication US20100158980A1, “DRUG DELIVERY DEVICES FOR DELIVERY OF THERAPEUTIC AGENTS” (priority 2008, published 2010).

On the data set, the source says:
The active agent may be any active agent suitable to treat the desired condition. […] Examples include, but are not limited to, acetazolamide, dorzolamide HCl, timolol maleate, and ethacrynic acid sodium salt.

For “albumin: albumin (approximately 67 kDa) labeled with fluorescein isothiocyanate (BSA-FITC, Fluka), mixed with unlabeled albumin 1:9”, the solubility class entry was “high solubility”.
